Tests used:
PTP1B321 = PTP1B321 (Homo sapiens, UniProt P18031); experiment: Triterpene inhibition of PTP1B321 (Table 2); type: biochemical
PTP1B405 = PTP1B405 (Homo sapiens, UniProt P18031); experiment: Triterpene inhibition of PTP1B405 (Table 2); type: biochemical

Structure (SMILES): CC1(C)[C@@H](O)CC[C@]2(C)[C@H]3C(=O)C=C4[C@@H]5C[C@@](C)(C(=O)O)CC[C@]5(C)CC[C@@]4(C)[C@]3(C)CC[C@@H]12
- Ki (PTP1B321): 10 µM
- Ki (PTP1B405): 10 µM

Reference: patent US11660306B2, “Treatment of Rett syndrome” (Cold Spring Harbor Laboratory, priority 2014, dated 2023)
